The numbers were not newly measured in patent publication US12391660B2, “Heteroaromatic acetamide derivative, and preparation and use thereof” (Hangzhou Westan Pharmaceutical Technology Co., Ltd, priority 2019, dated 2025), which cites them from elsewhere.

The test system of the data set is ovalbumine-induced mouse asthma model. To be noted: cited from earlier work.

Molecules are shown by their SMILES.

Turning to `CC(C)c1ccc(NC(=O)Cn2cnc3c2c(=O)n(C)c(=O)n3C)cc1` [HC-030031], the “release of pro-inflammatory factors and neuropeptides” value was “reduce”.
